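Exposure lasted 48 hours, with cells grown in 96-well plates and compounds tested at five concentrations. Here, GI50 denotes the concentration required for 50% inhibition of growth. TGI: total growth inhibition.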
Test system: MDA-MB-468 breast
Test: growth of human tumour cells (NCI), 48 h

Question: With `O=[As]c1ccc(S(=O)(=O)Nc2ccccc2)cc1` (configuration not stated) as the molecule, how does the GI50 read?
Answer: Its GI50 is 1.37 µM.

Question: What about the TGI of the same molecule?
Answer: The TGI was 3.13 µM.
